Experimental data as given in publication PMC10641831 (Journal of Medicinal Chemistry, 2023).

Chains of the proteins cited; added tags and fusions are not shown.
UniProt P37288, whole entry: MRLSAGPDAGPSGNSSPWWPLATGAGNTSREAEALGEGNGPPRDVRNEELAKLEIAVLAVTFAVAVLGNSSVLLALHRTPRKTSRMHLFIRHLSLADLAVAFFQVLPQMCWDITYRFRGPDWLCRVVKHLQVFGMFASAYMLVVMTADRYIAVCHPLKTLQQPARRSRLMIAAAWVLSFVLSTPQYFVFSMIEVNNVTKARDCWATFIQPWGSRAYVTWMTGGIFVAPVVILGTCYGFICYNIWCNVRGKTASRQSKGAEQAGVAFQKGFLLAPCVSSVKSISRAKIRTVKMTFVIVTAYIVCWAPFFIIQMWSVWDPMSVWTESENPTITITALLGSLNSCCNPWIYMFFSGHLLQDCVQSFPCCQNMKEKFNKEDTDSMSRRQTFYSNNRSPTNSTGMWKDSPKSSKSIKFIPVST

Tests used:
hV1bR = target: T1, hV1bR (Homo sapiens, UniProt P47901); assay: IP-One accumulation assay, agonist function, HEK293 cells expressing hV1bR; type: cell-based; conditions: supplementary CSV; read-out: activity E-isomer V1bR
T1 construct: expressed in transfected cells
T1 sequence (P47901 1-424): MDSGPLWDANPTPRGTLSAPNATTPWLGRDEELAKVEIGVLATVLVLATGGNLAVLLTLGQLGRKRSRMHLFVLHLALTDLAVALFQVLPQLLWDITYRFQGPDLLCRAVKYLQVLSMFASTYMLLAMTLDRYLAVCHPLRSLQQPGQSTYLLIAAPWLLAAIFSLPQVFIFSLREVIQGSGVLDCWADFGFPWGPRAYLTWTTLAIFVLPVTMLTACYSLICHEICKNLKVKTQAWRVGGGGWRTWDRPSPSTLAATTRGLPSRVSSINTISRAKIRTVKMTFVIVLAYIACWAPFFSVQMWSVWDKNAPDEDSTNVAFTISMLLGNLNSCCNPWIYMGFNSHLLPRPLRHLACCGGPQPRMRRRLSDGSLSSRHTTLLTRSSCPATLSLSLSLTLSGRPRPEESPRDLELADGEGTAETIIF

hV1aR = target: T2, hV1aR (Homo sapiens, UniProt P37288); assay: IP-One accumulation assay, agonist function, HEK293 cells expressing hV1aR; type: cell-based; conditions: supplementary CSV; read-out: activity E-isomer V1aR
T2 construct: expressed in transfected cells

- EC50 (hV1bR): 107 ± 13 nM
- EC50 (hV1aR): 722 ± 53 nM
Structure (SMILES): N=C(N)NCCC[C@H](NC(=O)[C@@H]1CCCN1C(=O)[C@@H]1CSSC[C@H](N)C(=O)N[C@@H](Cc2ccc(O)cc2)C(=O)N[C@@H](Cc2ccc(/N=N/c3ccccc3)cc2)C(=O)N[C@@H](CCC(N)=O)C(=O)N[C@@H](CC(N)=O)C(=O)N1)C(=O)NCC(N)=O [compound 12, [AzbS^3]-VP]
